Test results as given in patent US8551978B2 (Theravance, Inc., priority 2009, dated 2013).

The chains behind the UniProt entries cited, without tags or fusion partners.
UniProt P20309, whole entry: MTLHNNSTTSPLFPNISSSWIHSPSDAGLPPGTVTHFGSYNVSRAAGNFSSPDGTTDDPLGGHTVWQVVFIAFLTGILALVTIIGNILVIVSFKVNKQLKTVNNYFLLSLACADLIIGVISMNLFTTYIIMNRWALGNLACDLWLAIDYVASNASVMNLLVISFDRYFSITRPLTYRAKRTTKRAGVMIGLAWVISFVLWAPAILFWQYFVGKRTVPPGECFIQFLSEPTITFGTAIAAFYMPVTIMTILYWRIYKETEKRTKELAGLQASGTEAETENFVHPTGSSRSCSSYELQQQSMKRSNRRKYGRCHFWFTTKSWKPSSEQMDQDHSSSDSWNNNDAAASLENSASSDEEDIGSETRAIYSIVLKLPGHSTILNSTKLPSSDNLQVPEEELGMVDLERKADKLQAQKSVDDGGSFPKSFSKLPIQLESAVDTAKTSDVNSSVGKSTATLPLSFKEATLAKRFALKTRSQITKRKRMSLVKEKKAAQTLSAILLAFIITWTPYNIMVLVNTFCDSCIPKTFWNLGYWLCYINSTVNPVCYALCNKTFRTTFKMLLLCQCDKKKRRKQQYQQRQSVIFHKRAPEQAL

Molecular target: hM3 muscarinic receptor (Homo sapiens (Human), UniProt P20309)
Assay: Radioligand binding assay for muscarinic receptors ([3H]-NMS displacement, CHO cell membranes)
Experimental: The cells were grown in a 5% CO2, 37° C. incubator and lifted with 2 mM EDTA in dPBS. Cells were collected by 5 minute centrifugation at 650×g, and cell pellets were either stored frozen at −80° C. or membranes were prepared immediately for use. For membrane preparation, cell pellets were resuspended in lysis buffer and homogenized with a Polytron PT-2100 tissue disrupter (Kinematica AG; 20 seconds×2 bursts). Crude membranes were centrifuged at 40,000×g for 15 minutes at 4° C. The membrane pellet was then resuspended with re-suspension buffer and homogenized again with the Polytron tissue disrupter. The protein concentration of the membrane suspension was determined by the method described in Lowry et al., 1951, […], 193, 265. All membranes were stored frozen in aliquots at −80° C. or used immediately. […] The membranes were briefly homogenized using a Polytron tissue disruptor (10 seconds) prior to assay plate addition. […] Filter plates were rinsed three times with wash buffer (10 mM HEPES) to remove unbound radioactivity. […] The plates were then counted in a PerkinElmer Topcount liquid scintillation counter (PerkinElmer, Inc.). Binding data were analyzed by nonlinear regression analysis with the GraphPad Prism Software package (GraphPad Software, Inc., San Diego, Calif.) using the one-site competition model. […]

Row | SMILES | Ki [pM] | Ki (hM3 Muscarinic Receptor Binding, data rounded to nearest 0.1 nM) [pM]
1 | CN(C(=O)CCN1CCC(OC(=O)Nc2ccccc2-c2ccccc2)CC1)c1cccc(CC(=O)Nc2cccc(CCNC[C@H](O)c3ccc(O)c4[nH]c(=O)ccc34)c2)c1 [Compound I-62] | 100 | –
2 | CN(C(=O)CCN1CCC(OC(=O)Nc2ccccc2-c2ccccc2)CC1)c1ccc(CNC(=O)CCc2cccc(CNC[C@H](O)c3ccc(O)c4[nH]c(=O)ccc34)c2)cc1 [Compound I-96] | – | 100

Read-outs that look alike come from different tables or passages of the source.
